An excerpt weighted towards active compounds, which were near 13% of everything screened.
Sfp inh – Sfp phosphopantetheinyl transferase inhibition. Biochemical Sfp PPTase activity, qHTS. 310,000 tested, 3.5% active. Q9F4F7. Potency, µM, usual class: inhibitors;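 also: the enzyme is Sfp with the accession as filed and its product quenches rhodamine fluorescence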
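Reaction rates are the 30-min fluorescence difference (ex 525, em 598 nm) in wells containing 15 nM Sfp, 5 uM rhodamine-CoA and 12.5 uM BHQ-2-YbbR at pH 7.6 with 10 mM MgCl2.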
Lamin A splicing – modulators of lamin A splicing | HeLa LMNA splicing GFP/RFP minigene ratio, 48 h | Potency, µM (top dose mostly 46.1 µM), usual class: inhibitors | 200,000 tested, 0.01% active; active = well fitted inhibition curve with a large enough effect in the signal ratio, with a control signal flat, not every such curve was filed as active; inconclusive = small, poorly fitted or top-dose-only effect, or effect the other way, or a change in a side signal; the % refers to the signal ratio
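S3 HeLa cells stably expressing lamin A-EGFP splicing minigene plus DsRed2, 600 cells/well, 48 h compound exposure at 37C. Laser-scanning cytometry; analysed as GFP (500-530 nm)/RFP (575-640 nm) total intensity ratio; 0.5% DMSO vehicle.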
G9a block – inhibitors of human histone lysine methyltransferase G9a | Q96KQ7 | G9a H3K9 monomethylation, AlphaScreen, 2 h | Potency, µM (highest dose often 102 µM), usual class: inhibitors | 350,000 tested, 8.8% active | AID 504332; also: nearly all actives have a fitted effect of over 75% in size
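Compounds were preincubated with 20 nM G9a for 15 min, after which biotinylated H3K9 peptide (500 nM) and SAM (20 uM) started a 2 h room-temperature reaction. Monomethylated product was quantified by antibody-based AlphaScreen chemiluminescence.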
ALDH1A1 block – blocks purified human ALDH1A1 activity; Potency, µM (highest dose often 75.3 µM), actives largely listed as inhibitors; 220,000 tested, 7.3% active; P00352; Purified ALDH1A1, NADH fluorescence, propionaldehyde substrate; AID 1030; active = well fitted inhibition curve with a large enough effect, not every such curve was filed as active; inconclusive = small, poorly fitted or top-dose-only effect, or another doubt; inactive = no such curve, though single readings can be large or run the other way
miR-21 reporter – miR-21 reporter, rising signal; HeLa miR-21 FLuc reporter, luciferase, 48 h; Potency, µM (highest dose often 38.3 µM); 340,000 tested, under 10 active; AID 2288; active = well fitted rising curve with a large enough effect; inconclusive = small, poorly fitted or top-dose-only effect; inactive = no such curve, though single readings can be large or run the other way;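 further: miR-21 action dims this reporter so a rising signal means less miR-21 action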
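Luminescence from a firefly luciferase reporter carrying a miR-21 binding site downstream, stably expressed under a CMV promoter in HeLa cells that make miR-21 endogenously, reports miRNA modulation after 48 h compound exposure up to approximately 40uM final.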
KDM4E inh – blocks human JMJD2E demethylase activity; B2RXH2; JMJD2E catalytic domain, FDH-coupled NADH fluorescence (FDH is formaldehyde dehydrogenase); AID 2147; Potency, µM (doses to about 57.1 µM), hits mostly inhibitors; 230,000 tested, 1.6% active; active = well fitted inhibition curve with a large enough effect, not every such curve was filed as active; inconclusive = small, poorly fitted or top-dose-only effect, or another doubt; inactive = no such curve, though single readings can be large or run the other way; also: nearly all actives have a fitted effect of over 50% in size
Hits are given with their value; - = inactive; ? = inconclusive; . = no result; [ ] = remark or other dose. Unless noted, calls follow the shape of the dose curve; as a rule, active = well fitted curve in the direction sought with a large enough effect; inconclusive = small, poorly fitted or top-dose-only effect, or another doubt; inactive = no such curve, though single readings can be large; an effect the other way counts as inactive or inconclusive.

SMILES	Sfp inh	Lamin A splicing	G9a block	ALDH1A1 block	miR-21 reporter	KDM4E inh
Clc1ccc(Cl)c(SCCCN2CCNCC2)c1	.	.	.	-[13.5 µM]	.	.
COc1ccc(C)cc1-n1nnnc1SCC(=O)N1CCC(C(=O)Nc2nccs2)CC1	-	?	-[12.7 µM]	7.9µM	-	-
COc1ccc(C)cc1-n1nnnc1SCC(=O)NC1CCCC1	.	.	-	.	.	.
Cc1ccccc1-n1nnnc1SCc1cc(=O)n2ccsc2n1	-	-	-	0.63µM	-	-
O=c1cc(CN2CCN(c3ccc(O)cc3)CC2)nc2scc(-c3ccccc3)n12	56µM	.	10µM	14µM	-	?
COc1ccccc1CNC(=O)Cc1c(C)c2c(cc(C)c3c(C)coc32)oc1=O	.	.	-	.	-	.
CCOc1ccc(NC(=O)CSc2cn(CC(=O)N3CCCCCC3)c3ccccc23)cc1	.	.	-	.	-	.
CC(c1n[nH]c(=S)n1-c1ccccc1)N1CCCCC1 (stereo not given)	-	-	18µM	-	-	-
O=C(O)c1ccccc1/C=N/N1CCN(C2c3ccccc3-c3ccccc32)CC1	-	-	40µM	-	-	?
Oc1ccc(/C=N/N2CCN(C3c4ccccc4-c4ccccc43)CC2)cc1	-	.	-	-	-	-
Cc1ccc(/C=N/N2CCN(C3c4ccccc4-c4ccccc43)CC2)o1	18µM	.	.	.	-	-
O=C(O)c1ccc(/C=N/N2CCN(C3c4ccccc4-c4ccccc43)CC2)cc1	?	.	.	.	-	?
Oc1ccc(/C=N/N2CCN(C3c4ccccc4-c4ccccc43)CC2)cc1O	56µM	.	.	.	-	16µM
Oc1ccc(/C=N/N2CCN(C3c4ccccc4-c4ccccc43)CC2)c(O)c1	-	?	40µM	?	-	-
Cc1cc(=O)[nH]c2nnc(SCc3cccc(F)c3)n12	.	?	-	.	-	.
Cc1nc(-c2ccc(S(=O)(=O)Nc3cc(Cl)ccc3C)cc2)co1	.	-	-	.	-	.
Cc1ccc(S(=O)(=O)CCCS(=O)(=O)c2ccc(C)cc2)cc1	-	-	-	?	-	-
Cc1ccc(S(=O)(=O)CC(=O)c2cc(C)c(O)c(C)c2)cc1	-	-	-	1.8µM	-	-
COc1cccc(C2CC(=O)Nc3c2c(=O)n(C)c2nc4ccccc4n32)c1 (stereo not given)	.	.	-	.	-	.
CC1CCN(C(=O)CSc2nncn2-c2ccccn2)CC1	?	-	7.1µM	?	-	-
CN1CCN(C(=S)Nc2ccc(S(N)(=O)=O)cc2)CC1	22µM	-	40µM	-	-	-
S=C(NCc1ccco1)N1CCN(c2cccc(Cl)c2)CC1	-	.	?	?	-	-
NS(=O)(=O)c1ccc(NC(=S)N2CCN(c3cccc(Cl)c3)CC2)cc1	13µM	?	8.9µM	-	-	-
S=C(NCCN1CCOCC1)N1CCN(c2cccc(Cl)c2)CC1	?	.	35µM	.	-	.
O=C1C[C@H]2OCC=C3CN4CC[C@@]5(C(=O)O)[C@H](N1)C2[C@H]3C[C@H]45 (stereo not given in full)	.	.	.	-[13.5 µM]	.	.
SMILES	Sfp inh	Lamin A splicing	G9a block	ALDH1A1 block	miR-21 reporter	KDM4E inh
Cc1cccc2c1c(N=NC(N)=S)c(O)n2C1OC(CO)C(O)C(O)C1O (stereo not given)	50µM	.	35µM	.	-	.
CCC1CN(C(=O)N2CCC(C(=O)NCCc3ccccc3Cl)CC2)c2cc(C)ccc2O1 (stereo not given)	.	?	-	.	-	.
CN(C)CCCNCCCNC(=O)/C=N/O	-	-	32µM	-	-	-
CN(C)CCCNCCCCNC(=O)/C=N/O	-	-	-[2.33 µM]	-	-	-
O=C(O/N=C\c1ccc(N2CCCCC2)c([N+](=O)[O-])c1)c1cccc(C(F)(F)F)c1	-	?	5µM	?	-	-
Cc1ccc(C(=O)O/N=C\c2ccc(N3CCCCC3)c([N+](=O)[O-])c2)cc1	-	-	10µM	1.4µM	-	-
O=C(O/N=C\c1ccc(N2CCCCC2)c([N+](=O)[O-])c1)c1c(F)cccc1F	-	?	14µM	18µM	-	-
O=C(O/N=C\c1ccc(N2CCCCC2)c([N+](=O)[O-])c1)c1cccc(Cl)c1	-	-	28µM	?	-	-
NC(=O)c1ccc(N2CCCCCC2)c([N+](=O)[O-])c1	-	-	-	?	-	-
CC(=O)c1nnn(-c2c(F)cccc2F)c1C	-	.	-	-	-	-
O=C(c1ccc(S(=O)(=O)N2CCOCC2)cc1)N(c1cccc(Cl)c1)C1C=CS(=O)(=O)C1 (stereo not given)	-	-	-	-	-	-
O=C(O)c1cc(Cl)c2c(c1)[C@@H]1C=CC[C@@H]1[C@H](c1ccc(S(=O)(=O)N3CCOCC3)cc1)N2	?	-	22µM	-	-	-
Cc1cc(C)c2c(c1)C1C=CCC1C(c1ccc(S(=O)(=O)N3CCOCC3)cc1)N2 (stereo not given)	40µM	-	8.9µM	?	-	-
Cc1ccc(S(=O)(=O)N2CCOCCOCCOCCOCCOCC2)cc1	-	.	-	.	-	.
c1ccc2c(NC3CC3)nc(-c3ccoc3)nc2c1	?	?	-[0.501 µM]	-	.	.
CC(=O)N1CCN(c2nc3c(F)cc(F)cc3s2)CC1	.	?	-	.	-	.
C=CCn1c(CCc2cc(C(C)(C)C)c(O)c(C(C)(C)C)c2)n[nH]c1=S	-	.	2µM	-	-	-
C=CCn1c(CCC(O)CCCCC)n[nH]c1=S (stereo not given)	-	?	7.1µM	?	-	-
C[C@@H]1CN(Cc2nc(-c3cccs3)no2)C[C@H](C)O1	-	.	-[12.7 µM]	-	-	-
COCC1CCN(Cc2nc(-c3cccs3)no2)C1 (stereo not given)	?	.	.	28µM	-	-
Clc1cccc2c1CCN(Cc1nc(-c3cnccn3)no1)C2	-	.	40µM	?	-	-
c1csc(-c2noc(CN3CCc4sccc4C3)n2)c1	-	.	-	20µM	-	-
c1ccc(C(c2ccccc2)N2CCN(Cc3nc(-c4cnccn4)no3)CC2)cc1	-	.	?	.	-	-
O=S(=O)(Cc1ccccc1Cl)NCCc1ccc(F)cc1	-	.	-	.	-	.
CCOc1ccccc1NCc1nnc2n1CCCCC2	.	?	-	.	-	.
SMILES	Sfp inh	Lamin A splicing	G9a block	ALDH1A1 block	miR-21 reporter	KDM4E inh
COc1cc(NC(=S)N2CCN(c3ccccn3)CC2)c(OC)cc1Cl	-	-	16µM	?	-	-
COc1ccc(Cl)cc1NC(=S)N1CCN(c2ccccn2)CC1	-	-	?	-	-	-
COc1cc(NC(=S)N2CCC(C(N)=O)CC2)c(OC)cc1Cl	?	-	45µM	-	-	-
CSc1ccc(CCNC(=O)CCCn2c(=O)c3cccn3c3ccccc32)cc1	.	?	14µM	.	?	.
O=C(CCCn1cnc2ccccc2c1=O)Nc1ccccc1F	-	.	35µM	.	-	.
COc1ccc(NC(=O)Cn2cnc3ccccc3c2=O)cc1OC	-	-	.	-	-	-
O=C(CCCN1C(=O)CCC1=O)Nc1ccc(Br)cc1F	-	-	-	-	-	-
